Values of other authors, collected in paper PMC10559049 (Heliyon, 2023).

System: sEH
Settings: cited from earlier work

O=C(O)CCCCCCCCCCCNC(=O)NC12CC3CC(CC(C3)C1)C2 [AUDA, 12-(3-adamantane-1-yl-ureido)-dodecanoic acid]
sEH inhibitory effects: inhibitory effects at nanomolar concentrations
